Consider one substance from patent publication US20090304803A1, “Compositions and methods relating to target-specific photodynamic therapy” (The General Hospital Corporation, priority 2005, published 2009).

This experiment concerns ovarian cancer cells. The experiment in a line: PCNA staining of tumor samples after EGFR-targeted PDT. It counts as in vivo, mice. The conditions noted are these: combination with photodynamic therapy, pelvis and mesentery, seventy-two hours after second PDT treatment. The method, then: FIGS. 9A1-9B2 are photomicrographs showing the PCNA staining pattern of tumor samples from mice injected with ovarian cancer cells.
Organs from OVCA animal models are analyzed histopathologically using Proliferating Cell Nuclear Antigen (PCNA) staining.

Consider “C225: agent combined with photodynamic therapy for EGFR-targeted PDT”, for which the “cell proliferation (PCNA staining)” value is recorded as “cell proliferation is reduced”.
